Measurements reported in EP4684807A1, “LINKER AND USE THEREOF IN LIGAND DRUG CONJUGATE” (priority 2023, dated 2024).

Experiment: Plasma stability test, drug-to-antibody ratio by LC-MS
Type: in vitro ADME
Details: human plasma, 37°C
Protocol: Antibody-drug conjugates were captured by immobilized magnetic beads
The beads were eluted with 200 µL of PBS buffer, then treated with 80 µL of biotin-labeled antigen protein and another 100 µL of PBS buffer at room temperature for 120 minutes. […] The supernatant was then removed.

B1: ADC-1D-1 (conjugate)
heavy: QVQLQQPGTEVVKPGASVKLSCKASGFTFPLYWMHWVRQRPGRGLEWIGRIIPIFGHTKYNEKFKNKATLTADESSSTAYMELRSLTSDDSAVYYCARGGYYYYPREGFLDYWGQGTSVTVSSASTKGPSVFPLAPSSKSTSGGTAALGCLVKDYFPEPVTVSWNSGALTSGVHTFPAVLQSSGLYSLSSVVTVPSSSLGTQTYICNVNHKPSNTKVDKKV[not shown - human IgG1 Fc]
light: DIVMTQSPASLSVSPGERASISCRSSQSVDYSGDSYMNWYQQKPGQSPRLLIYAASDRESGVPDRFSGSGSGTDFTLKISRVEEEDAGTYYCQQSREDPFTFGQGTKVDIKRTVAAPSVFIFPPSDEQLKSGTASVVCLLNNFYPREAKVQWKVDNALQSGNSQESVTEQDSKDSTYSLSSTLTLSKADYEKHKVYACEVTHQGLSSPVTKSFNRGEC
DAR value (2h): A (A: 3.5-4.5) | DAR value (8h): A (A: 3.5-4.5) | DAR value (1d): A (A: 3.5-4.5) | DAR value (4d): A (A: 3.5-4.5) | DAR value (7d): A (A: 3.5-4.5)

B2: ADC-2D-1 (conjugate)
heavy: QVQLQQPGTEVVKPGASVKLSCKASGFTFPLYWMHWVRQRPGRGLEWIGRIIPIFGHTKYNEKFKNKATLTADESSSTAYMELRSLTSDDSAVYYCARGGYYYYPREGFLDYWGQGTSVTVSSASTKGPSVFPLAPSSKSTSGGTAALGCLVKDYFPEPVTVSWNSGALTSGVHTFPAVLQSSGLYSLSSVVTVPSSSLGTQTYICNVNHKPSNTKVDKKV[not shown - human IgG1 Fc]
light: DIVMTQSPASLSVSPGERASISCRSSQSVDYSGDSYMNWYQQKPGQSPRLLIYAASDRESGVPDRFSGSGSGTDFTLKISRVEEEDAGTYYCQQSREDPFTFGQGTKVDIKRTVAAPSVFIFPPSDEQLKSGTASVVCLLNNFYPREAKVQWKVDNALQSGNSQESVTEQDSKDSTYSLSSTLTLSKADYEKHKVYACEVTHQGLSSPVTKSFNRGEC
DAR value (2h): A (A: 3.5-4.5) | DAR value (8h): B (B: 2.5-3.5) | DAR value (1d): B (B: 2.5-3.5) | DAR value (4d): C (C: < 2.5) | DAR value (7d): C (C: < 2.5)
